These results are taken from paper PMC5797642, “Inverse Modulation of Neuronal Kv12.1 and Kv11.1 Channels by 4-Aminopyridine and NS1643” (Frontiers in Molecular Neuroscience, 2018).

Usually IC50 stands for the concentration needed to halve the response being measured. Broadly, the EC50 is the midpoint of the concentration-response curve. The low end stands for a more potent agent, the high end for a less potent agent.

One test has as its target T1, Kv11.1 (Erg1) (Rattus norvegicus, UniProt O08962).
T1 construct: gene Kcnh2
T1 sequence (O08962 1-1163): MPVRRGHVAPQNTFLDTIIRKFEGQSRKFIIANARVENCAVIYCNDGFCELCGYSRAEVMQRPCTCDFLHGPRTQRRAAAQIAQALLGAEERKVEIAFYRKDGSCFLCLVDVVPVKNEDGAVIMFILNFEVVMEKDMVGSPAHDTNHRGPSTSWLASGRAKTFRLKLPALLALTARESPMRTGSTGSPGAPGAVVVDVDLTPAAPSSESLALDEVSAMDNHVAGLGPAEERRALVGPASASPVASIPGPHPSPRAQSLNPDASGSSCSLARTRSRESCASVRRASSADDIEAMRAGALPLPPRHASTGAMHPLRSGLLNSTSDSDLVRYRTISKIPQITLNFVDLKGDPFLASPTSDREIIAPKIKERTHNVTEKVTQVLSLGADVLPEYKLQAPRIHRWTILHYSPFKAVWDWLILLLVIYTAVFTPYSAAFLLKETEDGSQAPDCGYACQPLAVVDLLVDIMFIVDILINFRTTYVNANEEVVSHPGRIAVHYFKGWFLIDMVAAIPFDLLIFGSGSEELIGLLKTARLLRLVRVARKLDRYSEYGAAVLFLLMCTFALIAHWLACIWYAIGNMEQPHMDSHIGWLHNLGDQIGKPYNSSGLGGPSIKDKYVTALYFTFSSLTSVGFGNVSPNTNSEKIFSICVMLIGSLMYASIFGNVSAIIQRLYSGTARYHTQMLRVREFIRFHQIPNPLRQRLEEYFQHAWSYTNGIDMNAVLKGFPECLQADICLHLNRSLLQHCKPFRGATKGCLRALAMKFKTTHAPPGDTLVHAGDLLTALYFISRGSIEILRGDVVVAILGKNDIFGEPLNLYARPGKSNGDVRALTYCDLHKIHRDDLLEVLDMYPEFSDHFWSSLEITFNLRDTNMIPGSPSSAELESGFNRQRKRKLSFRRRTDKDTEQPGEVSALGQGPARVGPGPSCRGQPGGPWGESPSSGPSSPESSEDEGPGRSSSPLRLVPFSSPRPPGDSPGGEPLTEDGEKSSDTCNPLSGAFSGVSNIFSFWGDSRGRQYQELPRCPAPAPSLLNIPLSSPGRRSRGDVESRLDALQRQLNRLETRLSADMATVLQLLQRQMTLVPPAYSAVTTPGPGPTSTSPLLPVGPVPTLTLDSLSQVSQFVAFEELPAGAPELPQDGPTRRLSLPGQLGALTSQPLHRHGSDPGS
The experiment in a line: cell-based.

The next test has as its target T2, Kv12.1 (Elk1) (Homo sapiens, UniProt Q96L42).
T2 sequence (Q96L42 1-1107): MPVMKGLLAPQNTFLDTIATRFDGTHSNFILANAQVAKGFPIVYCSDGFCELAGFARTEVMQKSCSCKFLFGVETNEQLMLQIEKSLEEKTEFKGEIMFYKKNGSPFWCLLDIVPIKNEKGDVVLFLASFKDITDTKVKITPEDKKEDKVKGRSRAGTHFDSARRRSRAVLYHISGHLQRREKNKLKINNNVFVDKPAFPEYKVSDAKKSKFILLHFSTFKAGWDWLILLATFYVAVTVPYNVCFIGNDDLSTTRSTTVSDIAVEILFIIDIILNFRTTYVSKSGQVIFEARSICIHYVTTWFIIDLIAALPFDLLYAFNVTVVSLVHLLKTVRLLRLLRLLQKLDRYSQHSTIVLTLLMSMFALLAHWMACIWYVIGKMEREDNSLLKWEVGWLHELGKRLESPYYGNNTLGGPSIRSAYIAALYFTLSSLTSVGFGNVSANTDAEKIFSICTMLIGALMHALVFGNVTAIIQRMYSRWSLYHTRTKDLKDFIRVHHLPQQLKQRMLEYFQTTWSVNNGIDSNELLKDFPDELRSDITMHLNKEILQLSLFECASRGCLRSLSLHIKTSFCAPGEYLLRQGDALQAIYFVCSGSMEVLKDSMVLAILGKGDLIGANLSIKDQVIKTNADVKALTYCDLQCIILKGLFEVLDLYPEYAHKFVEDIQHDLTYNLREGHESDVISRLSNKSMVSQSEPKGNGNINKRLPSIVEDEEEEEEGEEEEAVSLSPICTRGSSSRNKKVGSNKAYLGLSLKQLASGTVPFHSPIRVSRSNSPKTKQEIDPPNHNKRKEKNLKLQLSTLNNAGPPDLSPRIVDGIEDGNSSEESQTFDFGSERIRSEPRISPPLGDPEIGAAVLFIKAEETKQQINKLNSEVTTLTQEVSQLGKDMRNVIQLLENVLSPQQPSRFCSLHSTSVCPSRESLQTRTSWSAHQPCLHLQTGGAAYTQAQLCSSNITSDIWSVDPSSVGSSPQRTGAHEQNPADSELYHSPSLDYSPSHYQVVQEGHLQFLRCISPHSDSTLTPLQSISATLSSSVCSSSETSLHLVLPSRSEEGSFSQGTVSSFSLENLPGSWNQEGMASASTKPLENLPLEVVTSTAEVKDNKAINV
Briefly: cell-based. Set-up: gene KCNH8.

`Nc1ccncc1` [4-AP, 4-aminopyridine]: the IC50 at Kv11.1 (Erg1) is about 2.6 mM. At Kv12.1 (Elk1), this compound showed a concentration giving a half-maximal response (EC50) of about 2.1 mM.
